Target: human β2-AR (Homo sapiens (Human), UniProt P07550)
Conditions: relative to (R,R)-3

C[C@@H](Cc1ccc(N)cc1)NC[C@H](O)c1cc(O)cc(O)c1.O=C(O)/C=C/C(=O)O
change of Kiβ2 relative to the (R,R)-3/β2-AR complex: 3 fold

Source: patent publication US10925840B2, “Use of fenoterol and fenoterol analogues in the treatment of glioblastomas and astrocytomas” (priority 2010, dated 2021)
